Measured values reported in patent publication US5556849A, “Ruthenium containing phthalocyanin photosensitizers” (priority 1991, dated 1996).

Assays:
[1] = test system: Adherent cells (HeLa RCA. SKOV OVCAR); assay: Phototoxicity (Light): 3H-thymidine incorporation in adherent cells after irradiation, with dark cytotoxicity for PI; type: cell-based; settings: ratio of PC50 to cytotoxic concentration 50% (no light)
Description: The media is removed and the cells washed three times with D-PBS. and then covered with D-PBS (200 μl ) and exposed to light from the same source used in the singlet oxygen assay.
This follows the procedure for phototoxicity except that the cells are never exposed to light. The assay is relative to a non-treated control.
(§1) Compounds according to the invention were assessed and characterised by their light absorption maxima, and their molar extinction coefficients according to conventional test procedures. Most of the compound were tested for their biological activity according to conventional test procedures in the art. The PC50 represents phototoxic concentration 50%. which is the concentration of compound when exposed to a light dose as described herein, causes a 50% reduction in cancer cell growth vs an untreated control population. The phototoxicity index. PI, is the ratio of the PC50 to the cytotoxic concentration 50%. where the growth is reduced by 50% without a light dose being given.
PC50 is determined by a relatively simple in vitro assay on a cellular level, which is generally indicative of photosensitizing activity.

[2] = Light absorption maxima and molar extinction coefficients; type: physicochemical; settings: in water (W)
Description: as §1

## Nc1ccc(O)c(C(=O)O)c1.Nc1ccc(O)c(C(=O)O)c1.c1ccc2c(c1)C1=NC3=NC(=Nc4c5ccccc5c5[n]4[Ru][n]4c(c6ccccc6c4=N5)=NC2=N1)c1ccccc13 [RuPc(5AS)2]
[1]
  PI (phototoxicity index): > 10
[2]
  λmax Q: 635
